Assay results published in patent US7510845B2, “Assay employing G protein-coupled receptor expressed in dorsal root ganglia” (California Institute of Technology, priority 2000, dated 2009).
Entries after “also recorded” stand apart in the source; their conditions may differ.

Target: T1, MRGA1 (Mus musculus, UniProt Q91WW5)
T1 construct: cDNAs encoding eight full-length variants of Mrg receptors (mMrgA1-8) are provided; expressed in transfected cells; host or cells: HEK293-Galpha15 (A1) or HEK293 lacking Galpha15 (A4), transient transfection with FuGENE 6
T1 sequence (Q91WW5 1-304): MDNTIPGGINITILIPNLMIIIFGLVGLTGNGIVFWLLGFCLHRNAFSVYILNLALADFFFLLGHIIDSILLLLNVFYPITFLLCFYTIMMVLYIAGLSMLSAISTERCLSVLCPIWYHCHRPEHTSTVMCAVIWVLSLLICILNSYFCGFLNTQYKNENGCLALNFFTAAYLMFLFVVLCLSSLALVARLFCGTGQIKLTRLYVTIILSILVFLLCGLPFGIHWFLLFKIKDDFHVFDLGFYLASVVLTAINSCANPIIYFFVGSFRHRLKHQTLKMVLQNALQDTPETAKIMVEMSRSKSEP
Experiment: Intracellular Ca2+ release assay (Fura-2), MRGA1-GFP in HEK-Gα15 cells
Assay type: cell-based
Settings: ligand 1 μM
Protocol: To identify ligands for the Mrg receptors, selected MrgA genes were tested in a calcium release assay. MrgA genes, including MrgA1 and MrgA4, were cloned into a eukaryotic expression vector and transfected into human embryonic kidney (HEK) 293 cells. HEK-293 cells were obtained from the ATCC and cultured in DMEM supplemented with 10% fetal bovine serum. […]
To increase the sensitivity of the calcium release assay, in some experiments the MRGA-GFP fusion proteins were expressed in HEK 293 cells modified to express Gα15, which couples GPCRs to a signal transduction pathway leading to the release of intracellular free Ca^2+ (Offermann and Simon J Biol Chem 270: 15175-80 (1995)). This calcium release can be monitored ratiometrically using Fura-2 as a fluorescent indicator dye (Tsien et al. Cell Calcium 6: 145-57 (1985)) (FIGS. 11A-C). […]
Briefly, transfected cells were washed once in Hank's balanced salt solution with 11 mM D-glucose and 10 mM HEPES, pH 7.4 (assay buffer) and loaded with 2 μM Fura-2 AM (Molecular Probes) at room temperature for 90 min, with rotation. […] A cooled CCD camera (Photometric) was used in detecting fluorescence. […] Fura-2 fluorescence signals (340 nm, 380 nm and the 340/380 ratio) originating from GFP-positive cells were continuously monitored at 0.4- or 1-second intervals and collected using Axon Imaging Workbench 4.0 software (Axon). […]

Substance: CGRP-I: neuropeptide, calcitonin gene-related peptide
- Calcium response of MRGA1-expressing cells to ligand: some level of activation; also recorded: strongest responses
